High-throughput results as filed in PubChem.
HCMV NEC inh = inhibitors of HCMV UL50-UL53 nuclear egress complex interaction | hit rate 0.15% among 190,000 | HTRF UL50-UL53 interaction, normalized percent inhibition | inhibition, % (no concentration beside the values); in the data active = inhibition above about 27%, passing the limit was not always enough
GIV-Gai inh = GIV-Galpha-i interaction inhibition. 210,000 compounds, 0.42% hits. percent of control (FP), % (no concentration beside the values). Galpha-i3/FITC-GIV peptide fluorescence polarization, 90 min; active compounds read low; scaled: aluminum fluoride 0%, vehicle 100%. AID 1224905. P08753;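 active = replicate mean at 85% of control or lower, very high polarization wells dropped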;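 note: wells of about 15 µL received 100 nL stock; the first replicate is given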
GIV Gai FP conf = confirmation of inhibitors of GIV binding to rat Galpha-i3; shares compounds with GIV-Gai inh; FITC-GIV peptide binding to Galphai3, fluorescence polarization; hits give low values; fluorescence polarization, mP at 100 µM; hit rate 38% among 580; AID 1259350;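 active = inhibition score of 15 or more, meaning 100 minus mean polarization as percent of control over three replicates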;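 note: lower mP means peptide displaced from Galphai3 so more inhibition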
GIV Gai AS conf = GIV-Galpha-i3 inhibition, AlphaScreen confirmation; hit rate 39% among 580; AlphaScreen Galphai3-GIV binding, purified proteins, 90 min; hits give low values; shares compounds with GIV-Gai inh; AlphaScreen counts at 100 µM; AID 1259351;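 active = inhibition score at or above a set limit, where the score is 100 minus the three-replicate mean percent of control signal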
Starred values were filed as active, the others as inactive; . = no result. Rows were chosen to be rich in hits. Some 0.43% of all compounds tested hit in one or more screens of this group.

SMILES | HCMV NEC inh | GIV-Gai inh | GIV Gai FP conf | GIV Gai AS conf
O=C(Nc1cccc(F)c1F)C1CCN(c2ncccn2)CC1 | -15 | 93 | 77 | 36448
Cc1ccc(NC(=O)C2CCN(c3ncccn3)CC2)cc1F | -12 | 101 | . | .
O=c1[nH]c(=S)n(-c2cccc3ccccc23)c(O)c1/C=C1\C=Nc2ccccc21 | 7 | . | . | .
O=C(NC1(O)C(=O)c2ccccc2C1=O)c1ccccc1 | . | 52* | 47* | 37206
O=C(NN1C(=O)c2ccccc2C1=O)c1ccccc1 | -8 | . | . | .
COc1ccccc1C(=O)ON1C(=O)c2ccccc2C1=O | -22 | 93 | . | .
COc1cscc1C(=O)NC1(O)C(=O)c2ccccc2C1=O | 53* | 64* | 60 | 46565
CCc1ccc(Nc2cc(-n3nc(C)cc3C)ncn2)cc1 | -4 | 113 | . | .
N#Cc1ccccc1Cn1cc(C=C2C(=O)NC(=O)NC2=O)c2ccccc21 | -20 | 63* | 80 | 40454
O=C1NC(=O)/C(=C\c2cn(Cc3ccccc3F)c3ccccc23)N1 | . | 107 | . | .
O=C(CSC1=Nc2ccccc2N=C(c2ccccn2)C1)NC1CCc2ccccc21 (stereo not given) | -10 | 106 | . | .
Cc1cc2oc(C(=O)NCC(c3cccs3)N3CCCC3)c(C)c2cc1C (stereo not given) | -21 | 103 | . | .
O=C(NC1CC1)c1cc2n(n1)CCCN(Cc1ccc(Cl)cc1)C2=O | -22 | 103 | . | .
CC(C)c1ccc(C2C(C#N)=C(N)N3C(=C2C#N)Sc2ccccc23)cc1 (stereo not given) | . | 79* | 75 | 39185
CC1=C(C(=O)OC(C)C)C(c2ccc(C(C)C)cc2)C(C#N)=C(N)S1 (stereo not given) | -8 | . | . | .
COC(=O)c1ccc(CC#N)o1 | -9 | 98 | . | .
C=CCN(CC=C)Cc1ccc(C(=O)OC)o1 | 5 | 80* | 75 | 54407
CCN(C(=O)Cn1ncc2c(=O)oc3ccccc3c21)c1cc(OC)ccc1OC | 4 | 86 | 65 | 47620
CCOc1ccccc1N(CC)C(=O)Cn1ncc2c(=O)oc3ccccc3c21 | -8 | 100 | . | .
CN(C)c1ccc(-c2nnc3sc(-c4cccnc4)nn23)cc1 | -16 | 83* | 63 | 30008
CN(C)c1ccc(-c2nnc3sc(-c4ccncc4)nn23)cc1 | -63 | 106 | . | .
O=[N+]([O-])c1ccc(NCCCO)cc1Sc1nc2ccccc2[nH]1 | . | 111 | . | .
O=[N+]([O-])c1ccc(N2CCCCC2)cc1Sc1nc2ccccc2[nH]1 | . | 88 | 62 | 54142
CSc1nnnn1-c1cccc(O)c1 | -8 | 110 | . | .
O=C(N/N=C/c1ccccc1C(F)(F)F)c1ccco1 | -13 | 109 | . | .
CSc1scc2c1C(=O)/C(=C/N(C)C)CC2 | -84 | 14* | 29* | 1880*
CSc1scc2c1C(=O)CC(C)(C)C2 | -8 | 103 | . | .
O=C(CSc1nc2cc(C(=O)NCc3ccco3)ccc2c(=O)n1Cc1ccco1)NCC1CCCO1 (stereo not given) | . | 117 | . | .
CC1CN(C(=O)CCC(=O)NC2CCN(Cc3ccccc3)CC2)c2cc(Cl)ccc2O1 (stereo not given) | 12 | 107 | . | .
CCOc1ccccc1-c1c(C#N)c(N)nc(OC)c1C#N | -13 | 103 | . | .
CCN(CC)c1ccc(-c2c(C#N)c(N)nc(OC)c2C#N)cc1 | -22 | 31* | 84 | 47104
COc1cc(/C=C(\C#N)c2nc3ccccc3[nH]2)ccc1OCc1ccccc1F | -48 | 113 | . | .
COc1c(Cl)cc(Cl)cc1/C=C(\C#N)c1nc2ccccc2[nH]1 | . | 46* | 84 | 32566
CCC(=O)Oc1ccc(/C=C(\C#N)c2nc3ccccc3[nH]2)cc1OC | -85 | 89 | 92 | 29157
COc1cc(/C=C(\C#N)c2nc3ccc(C)cc3[nH]2)ccc1OCc1ccc(C)cc1 | -8 | 106 | . | .
N#C/C(=C/c1ccc(Cl)cc1Cl)c1nc2ccccc2c(=O)[nH]1 | -22 | 106 | . | .
COc1cccc(/C=C(\C#N)c2nc3ccc(C)cc3[nH]2)c1 | -37 | 70* | 80 | 34173
CNC(=S)c1nc2ccccc2[nH]1 | -22 | 102 | . | .
Cc1ccc(OC(=O)C(CCS(C)(=O)=O)N2C(=O)c3ccccc3C2=O)c(-n2nc3ccccc3n2)c1 (stereo not given) | -2 | 96 | . | .
CC1(C(=O)NCc2cccc(F)c2)CCCN(S(=O)(=O)c2ccc(F)cc2F)C1 (stereo not given) | . | 104 | . | .
CC1=CC(=C2C(=O)c3ccccc3C2=O)C=C(C)N1CCO | -52 | 91 | . | .
CC1=CC(=C2C(=O)c3ccccc3C2=O)C=C(C)N1C(C)C | -113 | 73* | 71 | 40071
CC(NCCO)c1ccc2c(c1)OCCO2 (stereo not given) | -2 | 78* | 75 | 36499
CC(NC(=O)c1ccccc1C(=O)NC(C)c1ccc2c(c1)OCCO2)c1ccc2c(c1)OCCO2 (stereo not given) | -25 | 105 | . | .
CN(C(=O)CSc1ccc(Cl)cc1)c1ccccc1C(=O)NC1CCCCC1 | 14 | 110 | . | .
COc1cc2c(cc1OC)CN(CCC(=O)O)CC2 | . | 92 | 67 | 39813
COc1cc2c(cc1OC)CN(CC(N)=O)CC2 | -7 | . | . | .
Cc1ccc(Cl)cc1N1CCN(C(=O)c2cc3c(=O)[nH]c4ccccc4c3n2C)CC1 | 5 | 103 | . | .
O=C(Cn1c(=O)nc(-c2ccccc2)c2ccccc21)Nc1ccc(Cl)cc1F | -6 | 104 | . | .
Nc1ccc2c(c1)C/C(=C/c1ccco1)C2=O | -85 | . | . | .
CCOC(=O)/C(C#N)=C/c1ccc(-c2ccc(Cl)c(C(=O)OC)c2)o1 | 0 | 65* | 76 | 22310
CCOC(=O)/C(C#N)=C/c1ccc(-c2ccc(Br)cc2)o1 | 12 | 105 | . | .
COc1cccc2cc(-c3csc(NC(=O)CCC(=O)NCCCN4CCC(C)CC4)n3)c(=O)oc12 | . | 111 | . | .
CCCCCC1NC(=O)NC1CCCCCC(=O)O (stereo not given) | -10 | 100 | . | .
CCN(CC)c1ccc(/C=c2\sc3ncnn3c2=O)cc1 | . | 57* | 35* | 49389
COc1ccc(/C=c2\sc3ncnn3c2=O)cc1 | -36 | . | . | .
O=C1/C(=C/c2cccnc2)CCCC/C1=C\c1cccnc1 | 13 | . | . | .
O=C1/C(=C/c2ccncc2)CCC/C1=C\c1ccncc1 | -21 | 51* | 51* | 18754*
CC1=C(C)C(=O)c2ccccc2C1=O | -172 | 109 | . | .
CC1(C)CCC2=C(O1)c1ccccc1C(=O)C2=O | 110 | 54* | 54* | 33926

Following part.
SMILES | HCMV NEC inh | GIV-Gai inh | GIV Gai FP conf | GIV Gai AS conf
Cc1cccc(NS(=O)(=O)c2cnc[nH]2)c1 | -2 | 95 | . | .
Nc1cccc2c1C(=O)N(CC(=O)N1CCc3ccccc31)C2=O | -10 | . | . | .
Nc1cccc2c1C(=O)N(CCO)C2=O | -65 | 75* | 55* | 50751
COc1ccc(N=Cc2ccc(Sc3ccccn3)o2)cc1 | -26 | . | . | .
COc1ccc2c(c1)N(C)/C(=C1/SC(=S)N(C)C1=O)S2 | -3 | 94 | 72 | 33947
COc1ccc2c(c1)N(C1CCCCC1)/C(=C1/SC(=S)N(C)C1=O)S2 | . | 109 | . | .
CCOC(=O)c1cnc(NC2CCCCC2)c2ccccc12 | . | 102 | . | .
CCOC(=O)c1ccc(-c2ccc(/C=c3/sc4nc5c(C)c(C)ccc5n4c3=O)o2)cc1 | . | 79* | 66 | 32406
CCOc1cc(/C=c2\sc3nc4c(C)c(C)ccc4n3c2=O)cc(Cl)c1O | 0 | . | . | .

Entries above with an aryl thioether with sulfur outside any ring:
SMILES | HCMV NEC inh | GIV-Gai inh | GIV Gai FP conf | GIV Gai AS conf
O=[N+]([O-])c1ccc(NCCCO)cc1Sc1nc2ccccc2[nH]1 | . | 111 | . | .
O=[N+]([O-])c1ccc(N2CCCCC2)cc1Sc1nc2ccccc2[nH]1 | . | 88 | 62 | 54142
CSc1nnnn1-c1cccc(O)c1 | -8 | 110 | . | .
CSc1scc2c1C(=O)/C(=C/N(C)C)CC2 | -84 | 14* | 29* | 1880*
CSc1scc2c1C(=O)CC(C)(C)C2 | -8 | 103 | . | .
O=C(CSc1nc2cc(C(=O)NCc3ccco3)ccc2c(=O)n1Cc1ccco1)NCC1CCCO1 (stereo not given) | . | 117 | . | .
CN(C(=O)CSc1ccc(Cl)cc1)c1ccccc1C(=O)NC1CCCCC1 | 14 | 110 | . | .
COc1ccc(N=Cc2ccc(Sc3ccccn3)o2)cc1 | -26 | . | . | .
